Experiment [1] deals with hAM1 receptor (Homo sapiens, UniProt O60895+Q16602). Briefly: cAMP assay for in vitro receptor activation, hAM1-R. Format: cell-based. Here is the method: (§1) General Protocols for cAMP Assays for Measuring In Vitro Receptor Activation
Cells stably overexpressing the hAM1 receptor were obtained from Ogeda (now Astellas Pharma), sub-cloned and a monoclonal cell-line with an appropriate assay-window was expanded, aliquoted and frozen. An aliquot was thawed and plated in DPBS with 0.05% casein and 0.5 mM IBMX as 8000 cells/well in a 384-well format.
A general note: cAMP levels reflect the balance of adenylyl cyclase and phosphodiesterase activity.

Protein sequences, listed by entry. Tags and fused reporters are not part of them. Residues count along the entry.
UniProt O60895, 43-175 partner: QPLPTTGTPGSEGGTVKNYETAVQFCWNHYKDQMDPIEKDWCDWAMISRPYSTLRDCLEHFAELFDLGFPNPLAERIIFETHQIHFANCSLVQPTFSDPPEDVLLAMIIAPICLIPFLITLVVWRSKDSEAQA
UniProt Q16602, 23-461: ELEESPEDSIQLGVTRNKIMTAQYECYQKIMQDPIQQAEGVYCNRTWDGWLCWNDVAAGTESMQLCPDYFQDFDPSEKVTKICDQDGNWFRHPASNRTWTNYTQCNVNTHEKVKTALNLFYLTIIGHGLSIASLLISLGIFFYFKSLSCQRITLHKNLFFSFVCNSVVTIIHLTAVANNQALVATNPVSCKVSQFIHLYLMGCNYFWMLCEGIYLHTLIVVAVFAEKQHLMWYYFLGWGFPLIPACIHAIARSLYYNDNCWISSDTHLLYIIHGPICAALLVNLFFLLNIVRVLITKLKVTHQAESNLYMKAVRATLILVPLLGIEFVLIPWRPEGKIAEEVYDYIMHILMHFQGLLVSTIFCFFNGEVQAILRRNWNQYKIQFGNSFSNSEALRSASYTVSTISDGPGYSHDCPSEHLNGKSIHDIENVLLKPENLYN

The target in experiment [2] is T1, hAMY3 receptor (Homo sapiens, UniProt O60896+P30988).
T1 sequence (P30988 25-474): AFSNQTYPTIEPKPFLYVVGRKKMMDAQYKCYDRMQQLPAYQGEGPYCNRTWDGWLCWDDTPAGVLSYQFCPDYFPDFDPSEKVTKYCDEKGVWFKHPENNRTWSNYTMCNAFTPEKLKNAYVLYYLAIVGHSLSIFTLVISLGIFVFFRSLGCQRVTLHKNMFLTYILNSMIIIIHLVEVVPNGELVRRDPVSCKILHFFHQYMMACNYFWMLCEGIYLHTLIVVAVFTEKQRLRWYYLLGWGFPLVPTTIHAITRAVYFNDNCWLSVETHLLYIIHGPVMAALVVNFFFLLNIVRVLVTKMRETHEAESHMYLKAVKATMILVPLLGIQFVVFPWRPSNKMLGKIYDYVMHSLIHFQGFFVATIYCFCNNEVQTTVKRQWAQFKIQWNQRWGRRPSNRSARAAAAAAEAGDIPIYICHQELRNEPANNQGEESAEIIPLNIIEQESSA
T1 sequence (O60896 24-148 partner): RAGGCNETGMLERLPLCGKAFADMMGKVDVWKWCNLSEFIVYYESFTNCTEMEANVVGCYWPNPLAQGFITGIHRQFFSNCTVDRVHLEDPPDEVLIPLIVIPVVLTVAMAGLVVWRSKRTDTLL
Put plainly: cAMP assay for in vitro receptor activation, hAMY3-R. Format: cell-based. As to the method:
as §1
Cells stably overexpressing the hAMY3 receptor were obtained from Ogeda (now Astellas Pharma), sub-cloned and a monoclonal cell-line with an appropriate assay-window was expanded, aliquoted and frozen.
An aliquot was thawed and plated in DPBS with 0.05% casein and 0.5 mM IBMX as 2000 cells/well in a 384-well format. The cells were then immediately stimulated for 30 min at room temperature with graded doses of test compound using human amylin (Bachem, cat no. H-7905) as a positive control. cAMP accumulation was measured using a Cisbio assay for Gs coupled receptors (cat. no. 62AM4PEC), where the assay reagents were added as per the manufacturer's instructions and time-resolved fluorescence energy transfer recorded after one hour.

What is called EC50 is the concentration that produces a half-maximal response.

Like-named read-outs stand apart in the source and are kept apart here.

Regarding `CC[C@H](C)[C@H](NC(=O)[C@H](C)NC(=O)CNC(=O)[C@H](Cc1ccccc1)NC(=O)[C@H](CC(N)=O)NC(=O)[C@H](CC(N)=O)NC(=O)[C@H](CO)NC(=O)[C@H](CO)NC(=O)[C@H](Cc1c[nH]cn1)NC(=O)[C@@H](NC(=O)[C@H](CC(C)C)NC(=O)[C@H](Cc1ccccc1)NC(=O)[C@H](CC(N)=O)NC(=O)[C@H](C)NC(=O)[C@H](CC(C)C)NC(=O)[C@H](CCCNC(=N)N)NC(=O)[C@H](CCC(N)=O)NC(=O)[C@@H](NC(=O)[C@H](C)NC(=O)[C@@H]1CSSC[C@H](NC(=O)[C@@H](N)CCCCN)C(=O)N[C@@H](CC(N)=O)C(=O)N[C@@H]([C@@H](C)O)C(=O)N[C@@H](C)C(=O)N[C@@H]([C@@H](C)O)C(=O)N1)[C@@H](C)O)C(C)C)C(=O)N[C@@H](CC(C)C)C(=O)N[C@@H](CO)C(=O)N[C@@H](CO)C(=O)N[C@H](C(=O)N[C@@H](CC(N)=O)C(=O)N[C@H](C(=O)NCC(=O)N[C@@H](CO)C(=O)N[C@@H](CC(N)=O)C(=O)N[C@H](C(=O)N[C@@H](Cc1ccc(O)cc1)C(N)=O)[C@@H](C)O)C(C)C)[C@@H](C)O` [SEQ ID NO: 2, reference compound], the EC50 in experiment [1] (cAMP accumulation, cells stably overexpressing hAM1 receptor, 30 min stimulation, read-out: hAM1R EC50) was above 5 µM.
On to `CC[C@H](C)[C@H](NC(=O)[C@H](C)NC(=O)CNC(=O)[C@H](Cc1ccccc1)NC(=O)[C@H](CC(N)=O)NC(=O)[C@H](CC(N)=O)NC(=O)[C@H](CO)NC(=O)[C@H](CO)NC(=O)[C@H](Cc1c[nH]cn1)NC(=O)[C@@H](NC(=O)[C@H](CC(C)C)NC(=O)[C@H](Cc1ccccc1)NC(=O)[C@H](CC(N)=O)NC(=O)[C@H](C)NC(=O)[C@H](CC(C)C)NC(=O)[C@H](CCCNC(=N)N)NC(=O)[C@H](CCC(N)=O)NC(=O)[C@@H](NC(=O)[C@H](C)NC(=O)[C@@H]1CSSC[C@H](NC(=O)[C@@H](N)CCCCN)C(=O)N[C@@H](CC(N)=O)C(=O)N[C@@H]([C@@H](C)O)C(=O)N[C@@H](C)C(=O)N[C@@H]([C@@H](C)O)C(=O)N1)[C@@H](C)O)C(C)C)C(=O)N[C@@H](CC(C)C)C(=O)N[C@@H](CO)C(=O)N[C@@H](CO)C(=O)N[C@H](C(=O)N[C@@H](CC(N)=O)C(=O)N[C@H](C(=O)NCC(=O)N[C@@H](CO)C(=O)N[C@@H](CC(N)=O)C(=O)N[C@H](C(=O)N[C@@H](Cc1ccc(O)cc1)C(N)=O)[C@@H](C)O)C(C)C)[C@@H](C)O` [compound 2], for which the EC50 in experiment [1] (cAMP assay, hAM1 receptor, read-out: hAM1R EC50) was above 5 µM.
For the molecule `CC[C@H](C)[C@H](NC(=O)[C@H](CCC(N)=O)NC(=O)[C@H](CCC(=O)O)NC(=O)[C@H](C)NC(=O)[C@H](CC(C)C)NC(=O)[C@H](CCCNC(=N)N)NC(=O)[C@H](CCC(N)=O)NC(=O)[C@@H](NC(=O)[C@@H](NC(=O)[C@@H]1CSSC[C@H](NC(=O)[C@H](CCCCN)NC(=O)CC[C@H](NC(=O)CCCCCCCCCCCCCCCCCCC(=O)O)C(=O)O)C(=O)N[C@@H](CCC(N)=O)C(=O)N[C@@H]([C@@H](C)O)C(=O)N[C@@H](C)C(=O)N[C@@H]([C@@H](C)O)C(=O)N1)[C@@H](C)O)C(C)C)C(=O)N[C@@H](Cc1ccc(O)cc1)C(=O)N[C@@H](CCC(N)=O)C(=O)N[C@@H](Cc1ccccc1)C(=O)N[C@H](C(=O)N[C@@H](CC(=O)O)C(=O)N[C@@H](CCCCN)C(=O)N[C@@H](CC(=O)O)C(=O)N[C@@H](CCCCN)C(=O)N[C@@H](CC(=O)O)C(=O)N[C@@H](CC(N)=O)C(=O)N[C@H](C(=O)N[C@@H](C)C(=O)N1CCC[C@H]1C(=O)N1CCC[C@H]1C(=O)N[C@H](C(=O)N[C@@H](CC(N)=O)C(=O)N[C@H](C(=O)NCC(=O)N[C@@H](CO)C(=O)N[C@@H](CC(N)=O)C(=O)NCC(=O)N1C[C@H](O)C[C@H]1C(N)=O)C(C)C)[C@@H](C)O)C(C)C)[C@@H](C)O` [compound 72], the EC50 in experiment [1] is above 5 µM; in experiment [2], 0.013 nM.
